Data from publication PMC9168620, “Genetic validation of Aspergillus fumigatus phosphoglucomutase as a viable therapeutic target in invasive aspergillosis” (The Journal of Biological Chemistry, 2022).

By UniProt entry, the sequences of proteins in these tests, tags left out. Where a name states a change or a piece, a line headed by the entry shows the natural chain unless it says otherwise.
UniProt Q4WY53: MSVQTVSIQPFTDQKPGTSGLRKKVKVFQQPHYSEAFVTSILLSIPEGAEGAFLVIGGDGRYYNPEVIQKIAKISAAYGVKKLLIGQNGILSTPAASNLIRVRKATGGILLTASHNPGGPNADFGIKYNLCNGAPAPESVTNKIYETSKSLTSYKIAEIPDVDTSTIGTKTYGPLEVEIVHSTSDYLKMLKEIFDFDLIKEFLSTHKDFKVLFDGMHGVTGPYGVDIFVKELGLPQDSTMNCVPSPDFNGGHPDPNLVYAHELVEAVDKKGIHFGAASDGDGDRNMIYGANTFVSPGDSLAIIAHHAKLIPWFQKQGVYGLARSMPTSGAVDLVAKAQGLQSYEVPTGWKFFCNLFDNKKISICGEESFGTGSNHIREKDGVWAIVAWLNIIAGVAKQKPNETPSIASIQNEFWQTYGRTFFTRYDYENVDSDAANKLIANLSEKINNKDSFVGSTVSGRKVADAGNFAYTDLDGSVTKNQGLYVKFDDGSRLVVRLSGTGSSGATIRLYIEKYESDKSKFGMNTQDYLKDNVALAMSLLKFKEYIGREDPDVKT

What was measured:
AfPGM [1] = biological target: T1, AfPGM (Aspergillus fumigatus, UniProt Q4WY53); assay type: biochemical; details: 15-min preincubation (Fig. S11C, D)
T1 construct: Full length AfPGM; 6His-GST (N, cleaved yes); made in house; host or cells: E. coli BL21 (DE3) pLysS
Method: (§1) The reaction mixture contained MOPS–NaOH (pH 7.4; 50 mM), MgSO4 (1.5 mM), NADP^+ (1 mM), G6PDH (0.01 U) from L. mesenteroides, Glc-1P (500 μM), Glc-1,6-2P (50 μM), and enzyme (5 nM). The reaction was carried out at 25 °C for 6 min in a total volume of 100 μl. Formation of NADPH was detected in real-time (every 1.5 min), measuring fluorescence signal (excitation at 360 nm; emission at 460 nm). To measure the inhibitory activity, compounds with different concentrations (3% (v/v) DMSO) were added to the reaction system. IC50 values were calculated using the product (NADPH) concentration at 6 min with 500 μM Glc-1P.
(§2) Figure S11: Representative enzyme activity assays for PGMs. Error bars represent standard deviation of three determinations. Panel A and B show the time course of PGMs and PGM mutants in which sugar recognition glutamates are mutated to glutamine. […] Values in parentheses indicate the time at which DTT (1 mM) was added.

AfPGM [2] = assay type: biochemical; details: no preincubation
Method: as §1, §2

## O=c1ccsn1-c1cccc(Cl)c1F [ISFP1]
AfPGM [1]
  Shift in IC50 against AfPGM over preincubation: did not significantly display a shift
AfPGM [2]
  Selectivity, IC50 HsPGM over IC50 WT AfPGM: approximately 20 fold
